Results on 3 compounds are retold here after patent US9067926B2, “Fluoromethyl-5,6-dihydro-4H-[1,3]OXAZINES” (F. Hoffmann-La Roche AG, priority 2012, dated 2015).

Amino acid sequences for entries named in this document (tags omitted). Residues count along the entry.
UniProt P56817, 46-501: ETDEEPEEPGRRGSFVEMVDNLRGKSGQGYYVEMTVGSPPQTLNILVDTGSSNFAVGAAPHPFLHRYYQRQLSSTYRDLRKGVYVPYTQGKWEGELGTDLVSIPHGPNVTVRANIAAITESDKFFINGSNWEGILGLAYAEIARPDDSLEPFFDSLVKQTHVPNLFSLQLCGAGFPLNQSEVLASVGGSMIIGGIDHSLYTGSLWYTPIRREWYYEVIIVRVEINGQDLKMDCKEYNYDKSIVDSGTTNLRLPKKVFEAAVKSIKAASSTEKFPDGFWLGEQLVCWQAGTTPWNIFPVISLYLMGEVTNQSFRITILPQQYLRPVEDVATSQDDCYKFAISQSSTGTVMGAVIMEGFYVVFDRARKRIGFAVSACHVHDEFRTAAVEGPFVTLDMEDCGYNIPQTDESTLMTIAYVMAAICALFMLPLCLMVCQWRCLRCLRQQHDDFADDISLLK

This assay concerns the target T1, BACE1 (Homo sapiens, UniProt P56817).
T1 construct: endogenous in cells; host or cells: HEK293 APP cells
Kind of assay: Cellular Aβ-lowering assay (Abeta 40 AlphaLISA). In kind it is cell-based. The conditions noted are these: HEK293 APP cells, 18-20 hrs incubation, Aβ 40 in culture supernatant; read-out: BACE1 cell act. Aβ40 IC50. As for the experimental part: Cellular Aβ-Lowering Assay:
The Abeta 40 AlphaLISA Assay can be used. The HEK293 APP cells were seeded in 96 well Microtiter plates in cell culture medium (Iscove's, plus 10% (vv) fetal bovine serum, penicillinstreptomycin) to about 80% confluency and the compounds were added at a 3× concentration in 13 volume of culture medium (final DMSO concentration was kept at 1% vv). After 18-20 hrs incubation at 37° C. and 5% CO2 in a humidified incubator, the culture supernatants were harvested for the determination of Aβ 40 concentrations using Perkin-Elmer Human Amyloid beta 1-40 (high specificity) Kit (Cat# AL275C).
Levels of Aβ 40 in the culture supernatants were calculated as percentage of maximum signal (cells treated with 1% DMSO without inhibitor). The IC50 values were calculated using the Excel XLfit software.
In general terms: In Alpha technology, singlet oxygen from a donor bead excites a nearby acceptor bead.

As a reminder, the IC50 is the concentration at which inhibition is half-maximal. `NC1=N[C@](CF)(c2cc(NC(=O)c3ncc(Cl)cc3Cl)ccc2F)C[C@@H](C(F)(F)F)O1` [Example 29, N-(3-((4S,6S)-2-Amino-4-(fluoromethyl)-6-(trifluoromethyl)-5,6-dihydro-4H-1,3-oxazin-4-yl)-4-fluorophenyl)-3,5-dichloropicolinamide]: the IC50 was 15 nM.

Take `COc1cnc(C(=O)Nc2ccc(F)c([C@]3(CF)C[C@@H](C(F)(F)F)OC(N)=N3)c2)cn1` [Example 36, N-(3-((4S,6S)-2-Amino-4-(fluoromethyl)-6-(trifluoromethyl)-5,6-dihydro-4H-1,3-oxazin-4-yl)-4-fluorophenyl)-5-methoxypyrazine-2-carboxamide]: the IC50 was found to be 31 nM.

Take `COc1ccc(C(=O)Nc2ccc(F)c([C@]3(CF)C[C@@H](C(F)(F)F)OC(N)=N3)c2)nc1` [Example 30, N-(3-((4S,6S)-2-Amino-4-(fluoromethyl)-6-(trifluoromethyl)-5,6-dihydro-4H-1,3-oxazin-4-yl)-4-fluorophenyl)-5-methoxypicolinamide]: the IC50 is 11 nM.
